Reference: patent publication US20140018340A1, “Insulin Mimetic Active Comprising Oxodiperoxo Vanadates and a Pharmaceutical Composition Obtained Thereof” (priority 2011, published 2014)

Experiments:
[1] = tested on: L6 skeletal muscles cell line; experiment: Glucose uptake using radiolabelled [3H]-2-deoxyglucose (2-DOG); assay type: cell-based
[2] = tested on: Glut4 in 3T3-L1 adipocytes; experiment: In vitro assay of Glut 4 translocation (GFP-Glut4 transfected cells); assay type: cell-based; conditions: GFP-Glut4 transfected 3T3-L1 adipocytes
3T3-L1 preadipocytes [3] = experiment: Lipid content in adipocytes by oil red O staining; assay type: cell-based; conditions: 3T3-L1, oil red O staining
Fetuin-A = Fetuin-A secretion and expression
PPARγ = experiment: Expression of adipogenic factor PPARγ
C/EBPβ = experiment: Expression of adipogenic factor C/EBPβ
[4] = Stability studies of oxodiperoxo-dmpz-vanadates
adipocytes = experiment: Fetuin-A mediated inhibition of adipocyte function
[5] = tested on: STZ treated diabetic rats; experiment: Glucose level in Streptozotocin (STZ) treated diabetic rats; conditions: type 1 diabetes model
3T3-L1 preadipocytes [6] = experiment: Adipocyte differentiation from preadipocyte to mature adipocyte; conditions: 5 μg/ml for 7 days
db/db mice = experiment: Blood glucose in type 2 diabetic db/db mice, oral administration; conditions: 180 μg/day/animal, starting blood sugar around 600 mg/dl
[7] = tested on: insulin signaling pathway; experiment: Augmentation of upstream and downstream insulin signaling pathway; conditions: 100 nM, same concentration as insulin, skeletal muscle and 3T3-L1 cell lines

**Q.** With DmpzH[VO(O2)2(dmpz)] as the substance, how does the “fatty acid inhibition of insulin stimulation of 2-DOG uptake” value ([1]; L6 skeletal muscles cell line) read?
**A.** The value was “remains preserved”.

**Q.** What about the Dose in-vitro ([1]; dose level giving elevation of glucose uptake in skeletal muscle cells) of the same substance?
**A.** The Dose in-vitro was 100 nM.

**Q.** And the “Glut4 translocation from cytosol to membrane” value [2]?
**A.** The value was “alone translocated Glut4 to the membrane”.

**Q.** And the “lipid droplet size and numbers in adipocytes” value (3T3-L1 preadipocytes [3])?
**A.** Its value is “significant increase in lipid droplet size and numbers”.

**Q.** And the “palmitate stimulated Fetuin-A secretion” value (Fetuin-A)?
**A.** The value was “significantly reduced palmitate stimulated Fetuin-A secretion”.

**Q.** And the “expression of PPARγ” value (PPARγ; listed as [VO (O2)2 dmpz])?
**A.** The value was “Over expression of PPARγ”.

**Q.** What about the “expression of PPARγ” value (PPARγ; listed as [VO(O2)2 (dmpz)]) of the same substance?
**A.** Its value is “significantly augmented”.

**Q.** And the “expression of C/EBPβ” value (C/EBPβ)?
**A.** Its value is “significantly augmented”.

**Q.** And the “time stable at 4° C.” value ([4]; 4° C.)?
**A.** Its value is 6 months.

**Q.** What about the “time stable at room temperature” value ([4]; room temperature) of the same substance?
**A.** The value was 10 days.

**Q.** What about the “Fetuin-A induced decrease of lipid droplet size and numbers” value (adipocytes) of the same substance?
**A.** Its value is “strikingly prevented”.

**Q.** And the “inhibitory activity of fetuin-A on lipid uptake” value (adipocytes)?
**A.** Its value is “could be reduced effectively”.

**Q.** And the “glucose level in STZ diabetic rats” value [5]?
**A.** The value was “restored their normal glucose level”.

**Q.** And the “adipocyte differentiation from preadipocyte to mature adipocyte” value (3T3-L1 preadipocytes [6]; listed as [VO (O2)2 dmpz])?
**A.** The value was “induced differentiation of preadipocyte to mature adipocytes”.

**Q.** And the “adipocyte differentiation from preadipocyte to mature adipocyte” value (3T3-L1 preadipocytes [6]; listed as [VO(O2)2 (dmpz)])?
**A.** Its value is “induces adipocyte differentiation from preadipocyte to mature adipocyte far more efficiently than insulin”.

**Q.** What about the “blood glucose level in db/db mice” value (db/db mice) of the same substance?
**A.** The value was “significantly reduces blood glucose level”.

**Q.** What about the “blood glucose level in db/db mice” value (db/db mice; listed as vanadium compound of the present invention) of the same substance?
**A.** Its value is “significantly reduced the blood glucose level (p<0.01)”.

**Q.** What about the “augmentation of insulin signaling pathway” value ([7]; listed as [VO (O2)2 dmpz]) of the same substance?
**A.** The value was “significantly augmented both upstream and downstream insulin signaling pathway”.

**Q.** What about the “augmentation of insulin signaling pathway” value ([7]; listed as [VO(O2)2 dmpz]) of the same substance?
**A.** Its value is “augmented insulin receptor tyrosine phosphorylation”.
